Laboratory results published in US20260069588A1, “VEPDEGESTRANT FOR USE IN TREATING CANCER” (Arvinas Operation, Inc., priority 2022, published 2026).

System: ST941/HI PDX model, ESR1 (Y537S)
Conditions: mice

terminal plasma level above reported clinical Cmax (500 mg IM): approximately 5 fold | terminal plasma levels (fulvestrant regimen): 250 nM
SMILES: C[C@]12CC[C@@H]3c4ccc(O)cc4C[C@@H](CCCCCCCCC[S+]([O-])CCCC(F)(F)C(F)(F)F)[C@H]3[C@@H]1CC[C@@H]2O (some centres unmarked) [fulvestrant, reference compound]
